Consider 2 molecules from article PMC6120983, “Chimeric Proteins Containing MAP-1 and Functional Domains of C4b-Binding Protein Reveal Strong Complement Inhibitory Capacities” (Frontiers in Immunology, 2018).

The test addresses T1, recombinant MAP-1 (human, UniProt P48740-3 20-380).
T1 construct: MBL/ficolin/CL-associated protein 1 (MAP-1, MAp44), product of the MASP1 gene; construct of the in-house rMAP-1 not described; also called rMAP-1; MAp44; source: produced in house
T1 sequence (looked up): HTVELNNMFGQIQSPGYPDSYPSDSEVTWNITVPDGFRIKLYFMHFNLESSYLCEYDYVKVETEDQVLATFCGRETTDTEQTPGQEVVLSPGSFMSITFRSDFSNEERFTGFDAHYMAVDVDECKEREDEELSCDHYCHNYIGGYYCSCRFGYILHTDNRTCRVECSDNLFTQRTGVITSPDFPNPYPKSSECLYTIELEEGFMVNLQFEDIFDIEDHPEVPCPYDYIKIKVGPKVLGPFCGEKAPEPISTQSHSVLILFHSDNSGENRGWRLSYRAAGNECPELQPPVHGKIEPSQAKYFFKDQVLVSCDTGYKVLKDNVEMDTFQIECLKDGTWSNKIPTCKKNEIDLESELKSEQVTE
Briefly: ELISA; rMBL or rCL-11 (2 μg/ml) held on mannan-coated wells; serial dilutions of the proteins from 13.5 nM in TBS/Tween/Ca^2+ (5 mM CaCl2), 2 h; detected with biotinylated anti-MASP-1/-3/MAP-1 mAb 8B3; Kd = concentration at half of the maximum binding, fit specific binding with Hill slope, Bmax shared. The note with it: both partners purified. On the technique in general: In an ELISA, binding on a coated surface is turned into a signal by an enzyme label.

B1: recombinant MBL (natural protein, UniProt P11226 21-248, looked up)
chain: ETVTCEDAQKTCPAVIACSSPGINGFPGKDGRDGTKGEKGEPGQGLRGLQGPPGKLGPPGNPGPSGSPGPKGQKGDPGKSPDGDSSLAASERKALQTEMARIKKWLTFSLGKQVGNKFFLTNGEIMTFEKVKALCVKFQASVATPRNAAENGAIQNLIKEEAFLGITDEKTEGQFVDLTGNRLTYTNWNEGEPNNAGSDEDCVLLLKNGQWNDVPCSTSHLAVCEFPI
notes: Oligomeric collectin; held on mannan-coated wells in the ELISA; Detected with an anti-human MBL antibody, so probably human; also called rMBL; source: produced in house
As a reminder, the Kd is a measure of binding affinity in units of concentration. In the case of B1, the Kd is 0.14 nM.

B2: recombinant CL-11 (natural protein, UniProt Q9BWP8 26-271, looked up)
chain: QPAGDDACSVQILVPGLKGDAGEKGDKGAPGRPGRVGPTGEKGDMGDKGQKGSVGRHGKIGPIGSKGEKGDSGDIGPPGPNGEPGLPCECSQLRKAIGEMDNQVSQLTSELKFIKNAVAGVRETESKIYLLVKEEKRYADAQLSCQGRGGTLSMPKDEAANGLMAAYLAQAGLARVFIGINDLEKEGAFVYSDHSPMRTFNKWRSGEPNNAYDEEDCVEMVASGGWNDVACHTTMYFMCEFDKENM
notes: collectin-11 (CL-11, CL-K1); Held on mannan-coated wells in the ELISA; also called rCL-11; collectin-11; source: produced in house
In the case of B2, the dissociation constant Kd was 1.65 nM.
